Measurements: ChEMBL document CHEMBL4118135, “Optimized allosteric inhibition of engineered protein tyrosine phosphatases with an expanded palette of biarsenical small molecules” (Bioorg Med Chem, 2018)

Amino acid sequences for entries named in this document (tags omitted).
UniProt P35236, whole entry P171C/V205C: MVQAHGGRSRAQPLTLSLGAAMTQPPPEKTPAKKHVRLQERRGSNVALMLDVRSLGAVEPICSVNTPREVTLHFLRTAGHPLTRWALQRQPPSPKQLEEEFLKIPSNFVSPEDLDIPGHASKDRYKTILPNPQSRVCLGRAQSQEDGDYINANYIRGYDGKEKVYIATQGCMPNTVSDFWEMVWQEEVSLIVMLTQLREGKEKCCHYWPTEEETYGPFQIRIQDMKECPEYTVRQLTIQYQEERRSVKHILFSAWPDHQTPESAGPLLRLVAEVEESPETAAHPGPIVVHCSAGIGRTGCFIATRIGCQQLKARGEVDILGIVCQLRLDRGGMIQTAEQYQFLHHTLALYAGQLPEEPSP

Molecular target: Tyrosine-protein phosphatase non-receptor type 7 (Homo sapiens, UniProt P35236, P171C/V205C)
Assay: Inhibition of allosterically sensitized mutant form of His6-tagged human HePTP catalytic domain using pNPP as substrate incubated for 90 mins by quenched phosphatase activity assay

SMILES: O=C(O)c1ccccc1-c1c2ccc(=O)c([As]3SCCS3)c-2oc2c([As]3SCCS3)c(O)ccc12
- IC50: 125 nM
